## Antibody variant affinities, Ab-14 light chain, assay B

From the AlphaSeq antibody data of Li et al. 2023 (doi:10.1038/s41467-023-39022-2), copy in the FLAb collection.

The target is the same throughout: PDVDLGDISGINAS, from the HR2 region of SARS-CoV-2 spike.

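Phage display of a naive human antibody library on the peptide gave the parent. The variants were designed computationally from a first round of random CDR variants and then made and measured. Group labels follow the data file (Ctrl: baseline library sampled from a position-specific scoring matrix, with some repeated check sequences; Rand: our label for a block that the file lists under HC and that is probably the random mutants of the ten best first-round binders; En: ensemble of fine-tuned language models; GP: Gaussian process model; HC: hill climbing; Gen: genetic algorithm; Gibbs: Gibbs sampling; a sequence that several methods proposed may carry one label only). The assay is AlphaSeq: two haploid yeast populations carry antibody and antigen on their surface. Mating (16 h, 30 °C) was followed by selection of diploids and sequencing of their barcodes. The ratio of observed to expected reads was calibrated, replicate by replicate, on BCL2-family standards whose Kd was known from biolayer interferometry. There are six technical replicates.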

Parent: Ab-14, a human scFv built as VH, three GGGGS repeats, VL. Only the CDRs of the light chain vary.
VH: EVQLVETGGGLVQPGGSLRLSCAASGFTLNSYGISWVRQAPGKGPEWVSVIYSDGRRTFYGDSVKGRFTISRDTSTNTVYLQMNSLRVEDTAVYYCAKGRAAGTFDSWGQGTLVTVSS
VL: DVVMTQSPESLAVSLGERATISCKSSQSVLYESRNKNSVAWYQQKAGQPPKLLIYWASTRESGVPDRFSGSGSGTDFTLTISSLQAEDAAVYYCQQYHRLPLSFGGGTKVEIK

Variants are written as CDR1, CDR2 and CDR3 of the light chain (limits as in the source). Parent: KSSQSVLYESRNKNSVA, WASTRES, QQYHRLPLS. Values are apparent Kd, the geometric mean of the replicates that gave a signal; lower means stronger binding. An entry "no signal" has no value in the source: the pair was not observed among the diploids in any replicate. This suggests poor binding but is not conclusive. Entries are sorted by rising average, undetected variants last. A sequence measured in both rounds can read differently, since the two assays cover different ranges.

CDR-L1	CDR-L2	CDR-L3	group	apparent Kd	replicates with signal
KQSQSVLYESRNKNNVA	DASTRMS	QQYHRLPLS	GP_HC	300 pM	6/6
KISQAYLYESRNKNSVA	QANQRES	QQYHRLPLS	GP_Gibbs	320 pM	6/6
KLSQSMLYESRNKNSVA	NASTRES	QQYHRLPLS	GP_Gen	420 pM	6/6
KIGMTLNQLMHQKNNVA	DLVEREN	QQYHRLPLS	En_Gen	510 pM	6/6
HVSPSTLYESRNKNSVA	NASTRES	QQYHRLPLS	GP_HC	530 pM	6/6
KVQQSWLYESRNKNSVA	DASQRES	QQYHRLPLS	GP_Gen	570 pM	6/6
KFSQSVLYESRNKNSVA	DGSTRES	QQYHRLPLS	GP_Gen	610 pM	6/6
KFSDSVLLESRTDNRVA	NASTRES	QQYHRLPLS	GP_HC	610 pM	6/6
KSSQSMLYEGKNKNSVA	EASTREQ	QQYHRLPLS	Ctrl	660 pM	6/6
HLSHSTDLESVHKNSIA	DLMTRES	QQYHRLPLS	En_HC	740 pM	6/6
KLSQSVLYESRNKNSVA	DASTRSS	QQYHRLPLS	GP_Gen	760 pM	6/6
KLSQSELYESAAKNSVA	NAMQRMS	QQYHRLPLS	GP_Gibbs	770 pM	6/6
KLQQSWLYESRNKNSVA	QASTRES	QQYHRLPLS	GP_Gen	810 pM	6/6
KFSQSDLYESRNKNSVA	DANTRES	QQYHRLPLS	GP_HC	870 pM	6/6
VLEQSQLYESRNKNSVA	NASQRER	QQYHRLPLS	GP_Gibbs	930 pM	6/6
KYSQLVLMESRNMNSVA	NASTREE	QQYHRLPLS	GP_Gibbs	980 pM	6/6
KLSQSELYESRNKNSVA	EASTRED	QQYHRLPLS	GP_Gen	1.0 nM	6/6
KLSQSFLYEDRVKNSVA	GASTRES	QQYHRLPLS	GP_HC	1.0 nM	6/6
KLSQSVLYESRNKNNVA	NASTRES	QDYHRLPLS	GP_Gen	1.1 nM	6/6
KLMQSWLYESRNKNSVA	NASTRED	QQYHRLPLS	GP_Gen	1.1 nM	6/6
KSSISYLYESPNKNSVA	EASTRCS	QQYHRLPLS	GP_HC	1.2 nM	6/6
KLSPSELYESRQSNSVA	NASLRES	QQYHRLPLS	GP_Gibbs	1.2 nM	6/6
KITDKFLTEGNGRQNIA	HGMVALE	QQYQQLPLA	En_Gibbs	1.3 nM	6/6
KQSQSVLYESRNKNSVA	MASTRES	QQYNRLPLS	GP_HC	1.4 nM	6/6
KFSQQVLYESRVMNSVA	NASQRLS	QQYHRLPLS	GP_Gibbs	1.5 nM	6/6
KLSQSELYESRNKNSVA	EASQREV	QQYHRLPLS	GP_Gen	1.6 nM	6/6
KLSGSVEMLSRNVNNVA	EASTREL	QAYHRLPLS	GP_Gibbs	1.7 nM	6/6
KFSQQVLYEDRQANSVA	NASQRFS	QQYHRLPLS	GP_Gibbs	1.8 nM	6/6
KLSQSVLYEWRNDNSVA	NASTRMS	QQYHRLPLS	GP_Gibbs	2.0 nM	6/6
KLGQMTGIESHAKNSLA	DANRRED	QQYHRLPLS	En_HC	2.0 nM	6/6
KLMQWQLYESRNKNNVA	NASTREM	QQYHRLPLS	GP_Gibbs	2.1 nM	6/6
KMSQSVLYESRNKNSVA	NASTRES	QQYHRLHGS	Ctrl	2.2 nM	6/6

Second part, the sequence after the result:

apparent Kd	replicates with signal	CDR-L1	CDR-L2	CDR-L3	group
2.4 nM	6/6	TINQSAQMESHNKNSVA	DLNVRGS	QQYDRLPLS	En_HC
2.5 nM	6/6	KSSQSALDESRNKNSVA	SASTRES	QQYHRLPLM	Ctrl
2.7 nM	6/6	NLQNLGMENSVWKNAIA	DVNIKES	QQYWRLPLL	En_Gibbs
3.0 nM	6/6	KVDQWEPYGSRNKNSVA	SASQRCS	QQYHRLPLS	GP_Gibbs
4.0 nM	6/6	KWQQSEEYESRNFNSVA	EASCRNS	QQYHRLPLS	GP_Gibbs
4.3 nM	6/6	KISMLSRYESQAKNSIA	EMSRREN	QQYHRLPLS	En_HC
4.4 nM	6/6	KFSQSVLYESRNKNSVA	AASTRCS	QQYHILPLS	Ctrl
5.3 nM	1/6	KLTHLSFVHDRQKASVA	DLERKAE	QQYNRLPLT	En_Gibbs
5.9 nM	6/6	MMSSLMGYESRHINNVA	QTSTREE	QQYDRLPLV	En_Gen
6.8 nM	6/6	NMQLQVRSDNNNKYNIA	DEMLREY	QQYNRLPLS	En_Gibbs
7.9 nM	6/6	KSSQSVLYESKNKNSIA	QASTREG	QQYHRLPLS	Ctrl
8.6 nM	6/6	KVSPSFLYESRNKNSVA	EASTRES	QQYHRLPLS	GP_Gen
8.9 nM	5/6	MISQLYNMGTFAINSVA	QASVRNA	QQYDRLPLM	En_Gen
11 nM	6/6	TIGAQLMYGMRNRSNVA	EVSQRLN	QQYDRLPLL	En_Gen
14 nM	6/6	KSSSSKLYESRNFNSVA	SASTRES	QQYHRLPLS	Ctrl
15 nM	5/6	KSEISFLYESRNKNSVA	EASTRES	QQYHRLPLS	GP_HC
16 nM	6/6	NIRGVEFESAMMGNAVA	GVSLVEA	QQYFRLPLH	En_Gibbs
18 nM	5/6	NMKVGLNFEDIQHQAIA	EVMERES	QQYARLPLT	En_Gibbs
21 nM	6/6	HFDQTRQEDIQDKNSVA	EGSVVIS	QQYSKLPLS	En_Gibbs
22 nM	6/6	KLTQTMRFEQKKKQNIA	EVSTRSQ	QQYVRLPLA	En_Gen
43 nM	6/6	HSSPSVLYESRMKNSVA	NASTRES	QQYHRLPLS	GP_HC
45 nM	5/6	MVTQMAMTGMKNKRSVA	NAETRES	QQYHRLPLI	En_Gen
57 nM	6/6	KSLQSVLYESRNKNSVA	HASTRED	QLYHRLPLS	Rand
74 nM	1/6	IVSQLMLWGWSAKNSIA	EAVTRLN	QQYDRLPLF	En_Gen
150 nM	5/6	NMNVGLNFGKNQEQAIA	EVEDRES	QQYARLPLT	En_Gibbs
230 nM	3/6	HISQSVGMTARNKNSVA	ENSTRED	QQYDRLPLS	En_HC
320 nM	5/6	KMGMTFQQDLMEEYSVA	DHMLRVT	QQYGRLPLS	En_Gibbs
360 nM	5/6	KDSQSVLYESRNINSVA	ELSIRES	QQYHRLPLS	Ctrl
370 nM	1/6	MISQLMNMGQFAINSVA	QAAIRNQ	QQYDRLPLA	En_Gen
380 nM	2/6	MISQIYNVGQFAINSVA	QASLRCN	QQYDRLPLE	En_Gen
no signal	0/6	KSSQSVLYESRNKNSVA	WASQRES	QWGHRLPLL	Ctrl
no signal	0/6	KSSMSVLAESRNKNSVA	WASTRES	QQPHRLPLS	Ctrl

Excerpt, the first 5 entries:

CDR-L1	CDR-L2	CDR-L3	group	apparent Kd	replicates with signal
KQSQSVLYESRNKNNVA	DASTRMS	QQYHRLPLS	GP_HC	300 pM	6/6
KISQAYLYESRNKNSVA	QANQRES	QQYHRLPLS	GP_Gibbs	320 pM	6/6
KLSQSMLYESRNKNSVA	NASTRES	QQYHRLPLS	GP_Gen	420 pM	6/6
KIGMTLNQLMHQKNNVA	DLVEREN	QQYHRLPLS	En_Gen	510 pM	6/6
HVSPSTLYESRNKNSVA	NASTRES	QQYHRLPLS	GP_HC	530 pM	6/6

The authors averaged sequences with at least three values out of six and counted those with two or fewer as poor binders. Background: pairings of all light chain designs with three empty control strains gave a value in 4% of cases (median 430 nM, 5th percentile 38 nM). Values in that range, when seen in few replicates, are hard to tell from nonspecific mating. The parent sequence was in this pool as ten entries: three were never detected, three once, and four in most replicates, with averages from 2.2 nM to 240 nM.